The test system of this data set is GDF15. The data set can be described thus: GDF15 release into media of primary hepatocytes (ELISA). To be noted: primary C57Bl6 hepatocytes, 24 hours; metformin 0.5 mM, A769662 10 μM, insulin 10 nM, hydrogen peroxide 0.5 mM; versus vehicle/no exposure. The procedure:
To further understand the link between metformin and GDF15 levels, in vitro experiments were conducted using mouse hepatocytes. Primary hepatocytes from 4 different C57Bl6 wild-type male mice were isolated by collagenase digestion as previously described^14. Briefly, cells were plated on 12-well collagen-coated plates overnight in William's Media E containing 10% fetal bovine serum (FBS) and 1% antibiotic-antimycotic. […] Media was then snap frozen and stored at −80° C. for later analyses, and cells were harvested in cell lysis buffer for assessment of total protein or RNA.
GDF15 release into the media was measured using a commercially available ELISA kit (R&D Systems, Minneapolis, Minn.) and expressed per mg of hepatocyte protein. Total RNA was isolated using the Trizol plus RNA Purification kit (Ambion), concentrated with Speedvac (Thermo), and then quantified using Quant-IT RiboGreen (LifeTech). Total RNA was then reverse transcribed and amplified using the Illumina TotalPrep RNA Amplification Kit (LifeTech) according to the manufacturer's protocol. Samples were hybridized to the Illumina Mouse Ref-8 v2.0 complementary DNA BeadChip and scanned on the iScan System (Illumina). The raw sample probe profile and control probe profile were exported from GenomeStudio version 1.9.0 (Illumina). […]

“Also recorded” adds a separate entry of the source.

With insulin, the “GDF15 protein in the hepatocyte media (GDF15 secretion)” value was “none of these substances affected; also recorded: unaffected”.

For the origin of these results see US10975434B2, “Growth differentiation factor 15 as biomarker for metformin” (Sanofi-Aventis Deutschland GmbH, priority 2015, dated 2021).
